## Antibody variant affinities, Ab-14 light chain, assay 1

Target peptide (SARS-CoV-2 spike, HR2 region): PDVDLGDISGINAS

Parent scFv Ab-14: VH joined to VL by a 15-residue (Gly4Ser)3 linker. Changes lie in the light chain CDRs alone.
VH: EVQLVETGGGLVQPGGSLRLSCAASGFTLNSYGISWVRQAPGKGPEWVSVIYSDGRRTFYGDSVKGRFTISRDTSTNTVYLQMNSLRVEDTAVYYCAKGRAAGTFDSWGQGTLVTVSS
VL: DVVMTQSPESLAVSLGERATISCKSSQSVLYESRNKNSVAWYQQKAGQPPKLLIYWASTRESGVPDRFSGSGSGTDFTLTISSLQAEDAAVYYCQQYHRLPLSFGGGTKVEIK

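Library AAYL50 holds single substitutions and randomly drawn double and triple substitutions in the CDRs. The scFvs were displayed on barcoded MATa yeast, the peptide on MATalpha yeast. Pairs that bind mate more often; barcode pairs of the diploids are counted by sequencing. Each replicate has its own calibration line, from reference interactions of the BCL2 family. There are three technical replicates.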

Sequences are complete VL domains.
This list gathers variants with a substitution at E32 (VL, numbered from residue 1).
The Kd shown is the geometric mean over detected replicates; a lower Kd is a better binder.
A pair that was not seen in any replicate is written "nd"; this usually means weak binding, but a binder can also be missed.

- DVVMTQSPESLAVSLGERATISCKSSQSVLYNSRNKNSVAWYQQKAGQPPKLLIYWASTRESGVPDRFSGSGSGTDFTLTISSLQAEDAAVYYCQQYHRLPLSFGGGTKVEIK = 66 nM (3 of 3 replicates)
- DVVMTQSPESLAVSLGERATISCKTSQSVLYDSRNKNSVAWYQQKAGQPPKLLIYWASTRESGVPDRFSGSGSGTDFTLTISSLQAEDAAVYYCQQYHYLPLSFGGGTKVEIK = 13 nM (3 of 3 replicates)
- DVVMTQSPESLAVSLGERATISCWSSQTVLYKSRNKNSVAWYQQKAGQPPKLLIYWASTRESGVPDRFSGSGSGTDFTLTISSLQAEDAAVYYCQQYHRLPLSFGGGTKVEIK = nd (0 of 3 replicates)
- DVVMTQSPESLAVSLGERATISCKSSTSVLYHSRNKNWVAWYQQKAGQPPKLLIYWASTRESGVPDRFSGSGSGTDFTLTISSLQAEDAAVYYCQQYHRLPLSFGGGTKVEIK = nd (0 of 3 replicates)
- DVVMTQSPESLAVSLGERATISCKSSQSVLYSSRNKNSVAWYQQKAGQPPKLLIYWASTRESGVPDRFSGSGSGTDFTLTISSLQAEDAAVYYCLQYHRLPASFGGGTKVEIK = 13 µM (3 of 3 replicates)
- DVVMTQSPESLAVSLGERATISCKSSQSVLYWSRNKNSVAWYQQKAGQPPKLLIYWASTRESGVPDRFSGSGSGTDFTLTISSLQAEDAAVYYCQQYHRLPLSFGGGTKVEIK = 18 nM (3 of 3 replicates)
- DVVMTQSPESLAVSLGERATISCKSSQSVLYYSRNKNSVAWYQQKAGQPPKLLIYVASTRENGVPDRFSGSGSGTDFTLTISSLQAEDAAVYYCQQYHRLPLSFGGGTKVEIK = 36 µM (1 of 3 replicates)
- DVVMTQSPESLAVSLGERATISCKSSQSVLYISRNKNSVAWYQQKAGQPPKLLIYWAVTRNSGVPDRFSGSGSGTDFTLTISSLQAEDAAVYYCQQYHRLPLSFGGGTKVEIK = 8.7 µM (3 of 3 replicates)
- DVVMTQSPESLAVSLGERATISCKSSQSVLYRSRNKNRVAWYQQKAGQPPKLLIYWASTRESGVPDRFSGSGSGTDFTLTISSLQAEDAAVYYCQQYHRLPLSFGGGTKVEIK = 19 nM (1 of 3 replicates)
- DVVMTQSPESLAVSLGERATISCKSSQSVLYKSRNKYSVAWYQQKAGQPPKLLIYWASTRRSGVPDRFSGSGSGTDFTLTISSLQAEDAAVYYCQQYHRLPLSFGGGTKVEIK = 330 µM (1 of 3 replicates)
- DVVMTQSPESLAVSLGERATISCKGSQSVLYDSRNKKSVAWYQQKAGQPPKLLIYWASTRESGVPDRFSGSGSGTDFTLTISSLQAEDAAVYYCQQYHRLPLSFGGGTKVEIK = 28 nM (3 of 3 replicates)
- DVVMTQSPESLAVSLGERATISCKSSQSVLYSSRNKNSVAWYQQKAGQPPKLLIYWWSTREHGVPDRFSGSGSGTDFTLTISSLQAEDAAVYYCQQYHRLPLSFGGGTKVEIK = nd (0 of 3 replicates)
- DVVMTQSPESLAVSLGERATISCKSSQSVLYWSRTANSVAWYQQKAGQPPKLLIYWASTRESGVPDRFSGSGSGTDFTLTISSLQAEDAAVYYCQQYHRLPLSFGGGTKVEIK = 71 nM (3 of 3 replicates)
- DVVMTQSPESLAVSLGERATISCKSSQSVLYISRNKNSVAWYQQKAGQPPKLLIYWASTRESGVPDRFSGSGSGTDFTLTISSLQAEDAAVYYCQQYHRCPLFFGGGTKVEIK = nd (0 of 3 replicates)
- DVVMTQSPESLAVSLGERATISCKSSQSVLYPFRNKNSVAWYQQKAGQPPKLLIYWASTRESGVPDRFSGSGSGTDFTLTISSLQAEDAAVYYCQQYHREPLSFGGGTKVEIK = 3.5 nM (3 of 3 replicates)
- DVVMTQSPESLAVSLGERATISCKSSQSVLYNSRNKNSVAWYQQKAGQPPKLLIYWASTNGSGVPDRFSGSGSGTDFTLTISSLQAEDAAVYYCQQYHRLPLSFGGGTKVEIK = nd (0 of 3 replicates)
- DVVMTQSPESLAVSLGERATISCKSSQSVLYASRNKNSVAWYQQKAGQPPKLLIYWHSTRESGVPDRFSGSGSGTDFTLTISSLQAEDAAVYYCQQYQRLPLSFGGGTKVEIK = nd (0 of 3 replicates)
- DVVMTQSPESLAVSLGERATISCKSSQSVLYKSRNKNSVAWYQQKAGQPPKLLIYWPSTRESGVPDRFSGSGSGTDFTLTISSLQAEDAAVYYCQQYHRLPLSFGGGTKVEIK = nd (0 of 3 replicates)
- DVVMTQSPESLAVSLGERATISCKSSQSVLYKSRNKNSVAWYQQKAGQPPKLLIYRASVRESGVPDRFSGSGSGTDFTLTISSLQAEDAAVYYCQQYHRLPLSFGGGTKVEIK = 12 µM (1 of 3 replicates)
- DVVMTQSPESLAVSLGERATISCKSSQSVHYSSRNKNSVYWYQQKAGQPPKLLIYWASTRESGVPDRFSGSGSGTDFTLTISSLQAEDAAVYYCQQYHRLPLSFGGGTKVEIK = nd (0 of 3 replicates)
- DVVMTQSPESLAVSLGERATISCKSSQSVLYQSRNKNSVAWYQQKAGQPPKLLIYWYSTRESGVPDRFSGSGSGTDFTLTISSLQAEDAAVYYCQDYHRLPLSFGGGTKVEIK = nd (0 of 3 replicates)
- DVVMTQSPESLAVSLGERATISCKSSQSVLRRSRNKNSVAWYQQKAGQPPKLLIYWASERESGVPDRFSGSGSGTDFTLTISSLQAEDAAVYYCQQYHRLPLSFGGGTKVEIK = nd (0 of 3 replicates)
- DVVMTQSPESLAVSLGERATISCKSSQSVLYISRNKNSVAWYQQKAGQPPKLLIYWASTRESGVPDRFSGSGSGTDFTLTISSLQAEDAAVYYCQMYHVLPLSFGGGTKVEIK = 7.5 µM (1 of 3 replicates)

The 4 strongest on average among those seen in every replicate, once more:

* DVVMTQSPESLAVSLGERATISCKSSQSVLYPFRNKNSVAWYQQKAGQPPKLLIYWASTRESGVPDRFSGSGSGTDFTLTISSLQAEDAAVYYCQQYHREPLSFGGGTKVEIK: 3.5 nM (3 of 3 replicates)
* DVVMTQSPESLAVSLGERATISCKTSQSVLYDSRNKNSVAWYQQKAGQPPKLLIYWASTRESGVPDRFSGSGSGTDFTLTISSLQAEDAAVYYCQQYHYLPLSFGGGTKVEIK: 13 nM (3 of 3 replicates)
* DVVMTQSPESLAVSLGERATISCKSSQSVLYWSRNKNSVAWYQQKAGQPPKLLIYWASTRESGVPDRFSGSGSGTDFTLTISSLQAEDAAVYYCQQYHRLPLSFGGGTKVEIK: 18 nM (3 of 3 replicates)
* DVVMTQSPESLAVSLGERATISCKGSQSVLYDSRNKKSVAWYQQKAGQPPKLLIYWASTRESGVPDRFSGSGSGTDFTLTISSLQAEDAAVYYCQQYHRLPLSFGGGTKVEIK: 28 nM (3 of 3 replicates)

Nonspecific signal, from three strains lacking the peptide, appeared in 18% of pairings of library AAYL50, centred on 15 µM (5% of these signals below 970 nM); values are not corrected for it.
For reference, the parent read 4.4 nM as the reference entry and 48 nM as a member of this library.

Source: Engelhart et al. 2022 (doi:10.1038/s41597-022-01779-4), MIT Lincoln Laboratory and A-Alpha Bio; data file from the FLAb repository.